This test relates to SARS-CoV-2. To be noted: Severe acute respiratory syndrome coronavirus 2, Vero C1008, read-out: 50% inhibitory concentration in cytopathic effect reduction assay (EC50). On the technique in general: Protection from cytopathic effect is a common read-out in antiviral testing.

The text below walks through data of US20240358659A1, “Uses of Propranolol for Managing Viral Infections” (Emory University, priority 2021, published 2024).

Structures are written as SMILES.

Regarding `CC(C)NC[C@H](O)COc1cccc2ccccc12` [S-propranolol, (S)-(−)-1-(isopropylamino)-3-(naphthalen-1-yloxy)propan-2-ol], the EC50 was found to be 15.3 µM.

In the case of `CC(C)NC[C@@H](O)COc1cccc2ccccc12` [R-propranolol, (R)-(+)-1-(isopropylamino)-3-(naphthalen-1-yloxy)propan-2-ol], the EC50 stood at 12.2 µM.
